Measured affinities in a library of Ab-95 light chain variants

Reference: Engelhart et al. 2022, doi:10.1038/s41597-022-01779-4. File: FLAb, binding data.

The target is the same throughout: PDVDLGDISGINAS, from the HR2 region of SARS-CoV-2 spike.

The variants keep the heavy chain, the linker and the frameworks of Ab-95 (scFv order VH, three GGGGS repeats, VL).
VH: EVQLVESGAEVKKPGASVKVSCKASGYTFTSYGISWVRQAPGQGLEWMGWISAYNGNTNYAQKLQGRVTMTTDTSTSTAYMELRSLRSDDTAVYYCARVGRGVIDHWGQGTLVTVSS
VL: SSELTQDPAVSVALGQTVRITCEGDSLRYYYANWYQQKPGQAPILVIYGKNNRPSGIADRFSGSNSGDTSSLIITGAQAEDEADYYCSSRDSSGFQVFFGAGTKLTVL

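The starting antibody came from a phage panning campaign against this peptide. The library (AAYL52) carries one to three amino acid substitutions per variant, with no insertions or deletions. The scFvs were displayed on barcoded MATa yeast, the peptide on MATalpha yeast. Binding brings cells together so that they mate, and sequencing counts the barcode pairs among the diploids. The ratio of observed to expected reads was calibrated, replicate by replicate, on BCL2-family standards whose Kd was known from biolayer interferometry. Each pool was mated in three replicate cultures.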

Each variant is given by its three light chain CDRs, as the data file delimits them; those of the parent are EGDSLRYYYAN, GKNNRPS, SSRDSSGFQVF. Values are log10 of the apparent Kd in nM; lower means stronger binding. A mean of the replicates is given; it leaves out those without a signal. Where no diploid with the target was found in that replicate, the entry reads "nd": below detection, most likely a poor binder, though not proof of it. Parent in this assay: reference entry 2.31, copy in this library 2.25.

CDR-L1,CDR-L2,CDR-L3,"log10 Kd, replicates","mean, log10 nM",signal with controls
EGDSLRYRYAN,GKNNRPC,SSRDSSGTQVF,2.51 / 2.51 / 2.45,2.49,3/9 (3.94)
EGDSLRYYYAN,GKNNRPS,SSRDMEGFQVF,nd / 5.44 / nd,5.44,3/9 (3.30)
EGDSLRYYYAN,SKNNRPS,SSRDSSGFCQF,3.56 / 3.16 / 4.30,3.67,4/9 (4.05)
EGDSLRYYYAN,MQNNRPS,SYRDSSGFQVF,nd / nd / nd,nd,0/9
EGESLRSYYAN,CKNNRPS,SSRDSSGFQVF,nd / nd / nd,nd,2/9 (3.97)
EGDILRYYYAN,GKNNRPS,SSWDSSGFQVF,3.75 / 4.58 / nd,4.16,3/9 (4.01)
EGDILRYYYAN,GKNNRYS,STRDSSGFQVF,nd / nd / nd,nd,1/9 (4.32)
EGDSLRYYYAN,GKNNIPQ,SSRDSSGAQVF,3.09 / 2.59 / 3.33,3.00,5/9 (3.64)
EGDVLRYYYAN,GKTNRPS,SSRDSSGFVVF,nd / nd / nd,nd,2/9 (4.44)
EGDSLRYNYAN,GKLNRPS,SSRDSSQFQVF,3.45 / nd / 3.04,3.24,3/9 (3.72)
EGDSLRYYYAD,GKNNRPS,SSRDYSGFVVF,4.48 / 5.32 / nd,4.90,5/9 (4.00)
EWDSIRYYYAN,GKNNRPS,STRDSSGFQVF,nd / 4.48 / nd,4.48,2/9 (3.51)
EGDSLRYYYKN,GKNNRPS,SMRLSSGFQVF,3.52 / 3.94 / 3.74,3.73,2/9 (4.47)
AGDSLRYYYAN,GKNNRPS,SSRIMSGFQVF,3.40 / nd / 3.25,3.32,1/9 (3.43)
EGDSLRYYYAN,LKNERPS,SSRDSSGIQVF,3.96 / nd / nd,3.96,4/9 (3.96)
EGYSLRYYYAN,GKNNRPT,SSRDKSGFQVF,2.88 / nd / nd,2.88,0/9
EGFSLLQYYAN,GKNNRPS,SSRDSSGFQVF,nd / 3.47 / 2.62,3.05,2/9 (3.92)
MGDILRYYYAN,GKNNRES,SSRDSSGFQVF,2.83 / 5.19 / nd,4.01,3/9 (3.53)
EGDALRYYYAR,GKNNRFS,SSRDSSGFQVF,3.83 / nd / nd,3.83,1/9 (3.55)
EGDSLRYYYAN,GKNNRSS,SSRDSSQFQRF,nd / 4.99 / nd,4.99,1/9 (3.97)
EGDDLRYYYAN,GKNNRPS,SSRDSNGFQVF,2.84 / 3.22 / 3.00,3.02,4/9 (3.95)
CGDSLWYYYAN,GKNNRPS,SSRDSSGFQVY,3.05 / 2.22 / 1.68,2.32,2/9 (4.33)
EGDSLRYRYAN,GKNARPS,SSRDSSGFQVR,2.18 / 2.50 / 2.30,2.33,6/9 (4.10)
EGDSLVYYYAN,GKNNRPS,SSRDSDGFQLF,nd / nd / nd,nd,1/9 (3.51)
EGDSLRYYYAN,KKNNRPS,SSRDSSGFDRF,nd / nd / nd,nd,4/9 (4.40)
EGDSLMYYYAN,GKNNRPS,SSRDSSGVQVF,2.70 / 2.66 / 2.83,2.73,2/9 (4.06)
EGDSLTYFYAN,GKNNRPS,SSRPSSGFQVF,3.70 / 2.80 / 3.10,3.20,6/9 (4.17)
EGDSLRYYYAN,GKNNRWS,KSRDSSGFQVF,3.52 / 2.80 / 4.03,3.45,1/9 (4.25)
EGDSLRVYYAN,GKVNRPS,SSRDSSGFQFF,4.06 / nd / nd,4.06,2/9 (4.14)
EGDVLRYYYAN,GWNNRRS,SSRDSSGFQVF,nd / 4.31 / nd,4.31,4/9 (3.84)
EGSSLRYYYAN,GKNNRPS,SSRDSSGDQVF,3.08 / 2.99 / 2.57,2.88,6/9 (3.94)
EGDSLRSYYAN,NKNNRPS,SSRDSSGFQVF,2.65 / 2.75 / 3.00,2.80,1/9 (4.00)
EGDSLRYYYAN,GKNNWPS,SARDSSGIQVF,nd / nd / nd,nd,0/9
TGDSLRYYNAN,GKANRPS,SSRDSSGFQVF,0.99 / 1.12 / 0.21,0.77,4/9 (3.70)
EQDSLRYYEAN,GKNNRPS,SCRDSSGFQVF,2.22 / 2.26 / 2.04,2.17,3/9 (3.69)
EGDSLRYYYAN,GKDNRPS,SSRDESGFQVA,2.76 / 3.01 / 2.83,2.87,3/9 (4.39)
EGDSLRYYYAK,GKNNRPS,SQRDSSFFQVF,5.00 / 5.81 / nd,5.41,4/9 (3.73)
EGDFLRYRYAN,GKNNRPS,SSRDSSYFQVF,3.10 / 3.05 / 2.80,2.98,2/9 (4.16)
EGDSDRYYYAN,WKNNRPS,SSRDSSGNQVF,nd / nd / 4.13,4.13,2/9 (3.41)
EGTSLRYYYAN,GKNNRPS,SSRDSSHFQTF,3.21 / 2.74 / 2.74,2.89,9/9 (3.58)
EGDSLRYYYAN,GKDNRPS,SQRDSSKFQVF,4.44 / 3.83 / 2.70,3.66,2/9 (4.46)
EGDSLRYYYAN,GKNKRPS,SSRDSLGFQQF,3.32 / nd / 3.39,3.36,1/9 (4.40)

A selection of 3 entries from above:

{"CDR-L1": "CGDSLWYYYAN", "CDR-L2": "GKNNRPS", "CDR-L3": "SSRDSSGFQVY", "log10 Kd, replicates": "3.05 / 2.22 / 1.68", "mean, log10 nM": "2.32", "signal with controls": "2/9 (4.33)"}
{"CDR-L1": "EGDSLRYYYAD", "CDR-L2": "GKNNRPS", "CDR-L3": "SSRDYSGFVVF", "log10 Kd, replicates": "4.48 / 5.32 / nd", "mean, log10 nM": "4.90", "signal with controls": "5/9 (4.00)"}
{"CDR-L1": "EGDSLRYYYAN", "CDR-L2": "GKDNRPS", "CDR-L3": "SSRDESGFQVA", "log10 Kd, replicates": "2.76 / 3.01 / 2.83", "mean, log10 nM": "2.87", "signal with controls": "3/9 (4.39)"}

Empty control strains, which show no peptide, gave a signal in 28% of pairings with library AAYL52; the median was 3.91 and 95% of these signals were weaker than 2.90. No background was subtracted. For each scFv, signals with the empty controls are counted beside the result, with their mean in brackets.